## Measured affinities in a library of Ab-14 light chain variants

Data: MIT Lincoln Laboratory AlphaSeq set, Li et al. 2023, doi:10.1038/s41467-023-39022-2, as distributed in FLAb.

The target is the same throughout: PDVDLGDISGINAS, from the HR2 region of SARS-CoV-2 spike.

Each scFv is VH, the linker GGGGSGGGGSGGGGS, VL, as in the parent Ab-14, and differs from it in the CDRs of the light chain only.
VH: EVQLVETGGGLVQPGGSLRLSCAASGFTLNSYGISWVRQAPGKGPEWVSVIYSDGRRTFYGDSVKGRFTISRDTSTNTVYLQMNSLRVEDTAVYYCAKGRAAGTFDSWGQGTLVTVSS
VL: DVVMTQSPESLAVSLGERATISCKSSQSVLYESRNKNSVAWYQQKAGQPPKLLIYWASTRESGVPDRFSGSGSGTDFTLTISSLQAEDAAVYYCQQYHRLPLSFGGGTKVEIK

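The parent was found by panning a naive human phage display library on the peptide. Designed CDR sequences, proposed from the first random library and measured here. Their group label is 14L_GP_HC (GP: Gaussian process model; HC: hill climbing; a sequence that several methods proposed may carry one label only). AlphaSeq pools MATa yeast showing the antibodies with MATalpha yeast showing the peptide. Mating (16 h, 30 °C) was followed by selection of diploids and sequencing of their barcodes. Each replicate has its own calibration line, from reference interactions of the BCL2 family. There are six technical replicates.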

Each variant is given by its three light chain CDRs, as the data file delimits them; those of the parent are KSSQSVLYESRNKNSVA, WASTRES, QQYHRLPLS.
The read-out is the apparent dissociation constant on a log10 scale (nM): the lower, the stronger.
A sequence measured in both rounds can read differently, since the two assays cover different ranges.
The authors averaged sequences with at least three values out of six and counted those with two or fewer as poor binders.
Background: pairings of all light chain designs with three empty control strains gave a value in 4% of cases (median 2.64, 5th percentile 1.59). Values in that range, when seen in few replicates, are hard to tell from nonspecific mating. For each scFv, signals with the empty controls are counted beside the result, with their mean in brackets.

| # | CDR-L1 | CDR-L2 | CDR-L3 | replicates, log10 nM | empty controls |
|---|---|---|---|---|---|
| 1 | KSSQSVCMESRNKNSVA | DASTRES | QQYHRLPLS | 0.76 / 1.03 / 1.12 / 0.73 / 1.21 / 1.45 | 0/18 |
| 2 | KSSPSYLGESRNKNSVA | EASTRES | QQYHRLPLS | 0.10 / -0.17 / -0.24 / -0.44 / -0.22 / -0.13 | 0/18 |
| 3 | KVSQSWLMESRNKNSVA | NASTRES | QQYHRLPLS | 1.11 / 1.00 / 1.17 / 1.51 / 1.42 / 1.53 | 1/18 (3.64) |
| 4 | KQSQSVLYEEVNKNSVA | DASTRES | QQYHRLPLS | 0.51 / -0.12 / 0.13 / 0.02 / -0.08 / 0.36 | 0/18 |
| 5 | HSSQSWLYESRNKNSVA | GASTRES | QQYHRLPLS | -0.28 / -0.47 / -0.65 / -0.60 / -0.42 / -0.31 | 1/18 (4.11) |
| 6 | KLRQSTLYESRNKNSVA | NASTRMS | QQYHRLPLS | 0.24 / 0.22 / -0.23 / -0.28 / -0.16 / 0.10 | 2/18 (2.88) |
| 7 | KSSWSVLGESGNKNSVA | HASTRED | QQYHRLPLS | 0.06 / -0.03 / 0.11 / 0.15 / 0.04 / 0.25 | 1/18 (2.72) |
| 8 | KSLQSELYESRNKNSVA | HASTRED | QQYHQLPLS | 0.66 / 0.52 / 0.57 / 0.55 / 0.85 / 0.71 | 3/18 (1.52) |
| 9 | KSSISELYESRNTNSVA | EASTRES | QQYHRLPLS | 0.18 / 0.17 / 0.24 / 0.37 / 0.11 / 0.36 | 1/18 (2.13) |
| 10 | KSSWSVLYESRNKNSVA | DASTRSS | QQYHRLPLS | 1.44 / 0.37 / 0.87 / 0.92 / 0.92 / 0.77 | 0/18 |
| 11 | KVSQSVLYESGTKNSVA | NASFRES | QQYHRLPLS | 0.49 / 0.22 / 0.26 / 0.15 / 0.28 / 0.52 | 0/18 |
| 12 | KSSQSFLYESRNVNSVA | QASTRES | QQYHRLPLS | 1.00 / 0.74 / 0.66 / 0.91 / 0.49 / 0.77 | 1/18 (2.64) |
| 13 | KSSQSWLYESRNKNSVA | HASQREQ | QQYHRLPLS | -0.06 / -0.37 / 0.08 / 0.13 / 0.23 / 0.35 | 0/18 |
| 14 | KSSWSVDYESRNKNSVA | DASTRES | QQYHRLPLS | -0.31 / -0.37 / -0.38 / -0.66 / -0.38 / -0.26 | 2/18 (2.27) |
| 15 | KSPQSFLYESRNVNSVA | GASTRES | QQYHRLPLS | 0.09 / -0.07 / -0.22 / -0.17 / -0.31 / -0.18 | 0/18 |
| 16 | HLSDSVLYESRNKNSVA | WASTRES | QQYHRLPLS | -0.05 / -0.13 / -0.20 / -0.31 / -0.10 / -0.14 | 0/18 |
| 17 | KSSISYPYESRNTNSVA | EASTRES | QQYHRLPLS | 0.06 / 0.15 / 0.31 / 0.43 / 0.08 / 0.55 | 3/18 (2.41) |
| 18 | KSSQSKLYESGNKNSVA | HASTRES | QQYHRLPLS | 0.68 / 0.61 / 0.67 / 0.60 / 0.84 / 0.87 | 0/18 |
| 19 | KLDQSTLYESRNKNSVA | WASTRES | QQYHRLPLS | 0.35 / -0.49 / -0.07 / 0.54 / 0.58 / 0.01 | 0/18 |
| 20 | KSSQSVDFESRNKNSVA | DASTREQ | QQYHRLPLS | 0.10 / 0.07 / -0.17 / -0.12 / -0.11 / -0.03 | 0/18 |
| 21 | KVSQSVLYESRAKNSVA | NASTRES | QQYHRLPLS | -0.11 / -0.16 / -0.41 / -0.29 / -0.27 / -0.22 | 1/18 (2.54) |
| 22 | KSSQSWLYESRNKNSVA | GASTREW | QQYHRLPLS | 0.60 / 0.96 / 1.51 / 0.95 / 0.65 / 0.94 | 0/18 |
| 23 | KSSQSELPESRNKNSVA | DASTRES | QQYHRLPLS | 0.20 / 0.25 / 0.10 / 0.01 / 0.04 / 0.03 | 0/18 |
| 24 | KSSWSVLQESRNKNSVA | DASTRSS | QQYHRLPLS | 0.40 / 0.31 / 0.09 / -0.18 / 0.21 / 0.38 | 0/18 |
| 25 | KFSQKVLYEPRTKNSVA | NASTRES | QQYHRLPLS | 1.01 / 0.78 / 0.32 / 0.84 / 0.66 / 0.95 | 0/18 |
| 26 | KVLQSVLYESRDKNSVA | HASTRED | QQYHRLPLS | 0.19 / 0.14 / 0.04 / 0.05 / 0.45 / 0.20 | 1/18 (2.33) |
| 27 | KGSQSVKFESRNKNSVA | DASTRES | QQYHRLPLS | -0.05 / 0.10 / -0.34 / -0.43 / -0.34 / 0.20 | 0/18 |
| 28 | KLSMSFLYESRNKNSVA | GASTRES | QQYHRLTLS | -0.35 / -0.28 / -0.68 / -0.72 / -0.56 / -0.60 | 0/18 |
| 29 | KVSQSVLQESRMKNSVA | DASTRCS | QQYHRLPLE | -0.08 / -0.07 / -0.09 / -0.28 / -0.18 / -0.13 | 1/18 (3.71) |
| 30 | KLSQKVLYEGRTKNSVA | NASTRES | QQYHRLPLS | 0.12 / -0.01 / 0.20 / 0.01 / -0.13 / 0.16 | 1/18 (2.42) |
| 31 | HLSWAVLYESRNKNSVA | NASTRES | QQYHRLPLS | 0.59 / 0.41 / 0.19 / -0.01 / 0.10 / 0.19 | 0/18 |
| 32 | KYYPSYLYESRNKNSVA | DASTRES | QQYHLLPLS | 0.04 / 0.07 / 0.01 / 0.60 / 0.67 / 0.32 | 0/18 |
| 33 | KLSGSTLYDSQNKNSVA | WASTRES | QQYKRLPLS | 0.23 / -0.14 / 0.03 / -0.43 / -0.31 / 0.09 | 0/18 |
| 34 | HLSEVVLYESRNKNSVA | NASTRES | QQYHRLPLS | -0.08 / -0.21 / -0.12 / -0.18 / -0.31 / -0.17 | 0/18 |
| 35 | KSSISYLEESRYKNSVA | EASTRES | QQYHRLPLS | 0.90 / 0.15 / 0.39 / 0.42 / 0.39 / 0.96 | 2/18 (1.85) |
| 36 | KSDQGALYESRNKNSVA | GASQRWS | QQYHRLPLS | 0.15 / 0.04 / 0.06 / -0.14 / -0.07 / 0.12 | 2/18 (3.21) |
| 37 | HMSQSVLYESRNKNSVA | NGSTRES | QQYHRLPLS | 0.21 / 0.17 / 0.17 / 0.09 / -0.20 / 0.23 | 2/18 (3.86) |
| 38 | KSSQSVLGESRNKNSVA | DASTREQ | QQYHRLPLS | -0.11 / -0.38 / -0.14 / -0.60 / -0.35 / -0.47 | 0/18 |
| 39 | KMSQSVDFESRNKNSVA | DASTRES | QQYHRLPLS | -0.10 / 0.21 / -0.27 / -0.14 / -0.41 / 0.01 | 1/18 (3.16) |
| 40 | KVYPSNLYESRNKNSVA | QASTRES | QQYHRLPLS | -0.34 / -0.34 / 0.12 / -0.20 / 0.11 / -0.13 | 1/18 (2.01) |
| 41 | KVRQSTLYESRNKNSVA | SASTRES | QQYHRLPLS | 0.00 / 0.08 / -0.11 / -0.10 / 0.04 / 0.00 | 3/18 (2.92) |
| 42 | KSSPVVLYESMNKNSVA | NASTRMS | QQYHRLPLS | 0.74 / 0.64 / 0.53 / 0.47 / 0.56 / 0.52 | 4/18 (2.67) |
| 43 | KLCQSVLYESRNKNSVA | EASTRED | QQYHRLPLS | -0.06 / 0.19 / -0.07 / -0.21 / 0.03 / 0.21 | 0/18 |
| 44 | KSLESVLYESNNKNSVA | QASTRED | QQYHRLPLS | 1.81 / 0.59 / 0.67 / 0.84 / 1.02 / 1.28 | 2/18 (2.46) |
| 45 | KVLQSVNYEGRNKNSVA | HASTRED | QQYHRLPLS | 0.24 / 0.36 / 0.36 / -0.10 / 0.04 / 0.46 | 1/18 (2.62) |
| 46 | KLDQQTLYESRNKNSVA | WASTREE | QQYHRLPLS | 0.59 / 0.74 / 0.85 / 0.56 / 0.76 / 0.62 | 0/18 |
| 47 | KSEQSVLYESRNKNNVA | HASTRED | QQYARLPLS | -0.06 / -0.42 / -0.22 / -0.30 / -0.28 / -0.10 | 2/18 (3.15) |

A selection of 5 entries from above:

| CDR-L1 | CDR-L2 | CDR-L3 | replicates, log10 nM | empty controls |
|---|---|---|---|---|
| KVYPSNLYESRNKNSVA | QASTRES | QQYHRLPLS | -0.34 / -0.34 / 0.12 / -0.20 / 0.11 / -0.13 | 1/18 (2.01) |
| KSSWSVLGESGNKNSVA | HASTRED | QQYHRLPLS | 0.06 / -0.03 / 0.11 / 0.15 / 0.04 / 0.25 | 1/18 (2.72) |
| KSSQSKLYESGNKNSVA | HASTRES | QQYHRLPLS | 0.68 / 0.61 / 0.67 / 0.60 / 0.84 / 0.87 | 0/18 |
| KVSQSVLYESGTKNSVA | NASFRES | QQYHRLPLS | 0.49 / 0.22 / 0.26 / 0.15 / 0.28 / 0.52 | 0/18 |
| KVLQSVNYEGRNKNSVA | HASTRED | QQYHRLPLS | 0.24 / 0.36 / 0.36 / -0.10 / 0.04 / 0.46 | 1/18 (2.62) |